Experimental data: publication PMC11002996 (Journal of medicinal chemistry, 2023)

Tested on: priming by LPS (TNF-α)
Experiment: LPS priming step, TNF-α in J774A.1 culture media by ELISA
Format: cell-based, mouse
Conditions: various concentrations

With `COC(=O)c1ccc(-c2cn(Cc3cc(Cl)ccc3OC)nn2)cc1` [Compound 8, Methyl 4-(1-(5-chloro-2-methoxybenzyl)-1H-1,2,3-triazol-4-yl)benzoate] the “inhibitory effect on the LPS priming step” value was “no inhibitory effect”.
